Assay outcomes from PubChem BioAssay.
In the library only some 1.4% were active in any assay of this set; here they are far more common.
Rango dissoc inh – prevents RanGTP from dissociating the Rango-importin beta complex; O95149+P62826; Potency, µM (doses to about 46.1 µM); hit rate 0.071% among 340,000; Biochemical FRET Rango-importin beta, RanGTP-induced dissociation; AID 540253; also: nearly all actives have a fitted effect of over 45% in size
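Rango FRET biosensor (snurportin-1 IBB flanked by N-terminal EYFP and C-terminal CFP10) at 0.1 uM, with 0.25 uM importin beta in PBS, 1mM DTT, 0.02% Tween-20, 0.1% BSA. 0.6 uM Ran, 2mM GTP and 0.2 uM RCC1 were then added for 45 min at room temperature. Inhibition read as loss of FRET rise.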
Rango-impB inh – Rango-importin beta binding inhibition; Q14974; Potency, µM (highest dose often 92.2 µM); hit rate 0.031% among 340,000; AID 540263; Rango CFP/YFP FRET sensor + importin beta, 45 min; also: nearly all actives have a fitted effect of over 15% in size
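Inhibition scored from the CFP 486 nm/YFP 530 nm FRET ratio 45 min after adding 0.125 microM importin beta to 50 nM Rango biosensor preincubated 5 min with compound (room temperature, PBS with DTT, Tween-20, BSA). No-importin wells as positive control.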
KCNH2 3.1 block – inhibitors of human KCNH2 3.1 potassium channel isoform; AID 720553; U2OS KCNH2 3.1, thallium flux FluxOr; stronger effect = lower value; hit rate 0.95% among 340,000; activity change, % (tested at about 1.8 µM);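 active = maximum activity change below -70%; inconclusive = maximum activity change from -70% to -50%; inactive = maximum activity change above -50%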;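 also: thallium influx rate constant from kinetic fluorescence after stimulation buffer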
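FluxOr-based Tl+ influx in U2OS cells transduced with KCNH2 3.1 virus; rate constants normalized to DMSO controls.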
hERG WT inh – inhibitors of human wildtype KCNH2 potassium channel | Q12809 | activity change, % at 1.84 µM | hit rate 0.37% among 340,000 | U2OS, BacMam KCNH2, thallium flux FluxOr; stronger effect = lower value | AID 720551;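 active = maximum activity change below -70%; inconclusive = maximum activity change between -70% and -50%; inactive = maximum activity change above -50%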
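U2OS cells transduced with wild-type KCNH2 virus are loaded with FluxOr dye for 45 min, and thallium flux is measured in kinetic reads before and after stimulation buffer. Rate constants are normalized to DMSO controls.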
CCT modulator – modulators of cytosolic chaperonin (CCT/TRiC) activity; purified chaperonin ATPase assay, HTRF ADP detection, 30 min; activity change, % (concentration not given with the values), hits read low; hit rate 0.3% among 360,000; AID 651819; in the data active = activity change below about -30%
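Nucleotide hydrolysis assay: TRiC at 20–40 nM final (set by batch activity) with 10 uM ATP, 30 min at 37 °C, in presence of 76 uM compound. Detection by competitive ADP HTRF, 30 min ambient.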
MmCpn inh – blocks the Methanococcus maripaludis chaperonin Mm-Cpn; purified Mm-Cpn ATPase, ADP Transcreener TR-FRET; Potency, µM (highest dose often 76.9 µM), hits mostly inhibitors; hit rate 0.031% among 330,000; AID 504842; active = well fitted inhibition curve with a large enough effect; inconclusive = small, poorly fitted or top-dose-only effect; also: nearly all actives have a fitted effect of over 80% in size
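Purified archaeal chaperonin (25 nM final) was preincubated with compound for 10 min at 37°C, then ATP (10 uM final) was added for 30 min at 37°C in Tris pH 7.4/KCl/MgCl2/DTT buffer. ADP was quantified by HTRF Transcreener TR-FRET.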
Large screens that a line does not name were inactive. Unless noted, calls follow the shape of the full dose curve.

Oc1ccc2ccccc2c1C=Nc1ccc(N2CCOCC2)cc1	Rango dissoc inh inconclusive, Rango-impB inh 37µM
Cc1c(NC(=O)COC(=O)c2ccc(F)c(S(=O)(=O)N3CCOCC3)c2)c(=O)n(-c2ccccc2)n1C	none
COc1ccc(CC2(CO)CCN(C(C)Cc3ccc(Cl)cc3)CC2)cc1 (centres undefined)	Rango dissoc inh inconclusive, KCNH2 3.1 block -93, hERG WT inh -93
CCCCn1c(N)c(N(CC)C(=O)CCNC(=O)NC23CC4CC(CC(C4)C2)C3)c(=O)[nH]c1=O	KCNH2 3.1 block -71
CCCCn1c(N)c(N(CC)C(=O)CCNC(=O)c2ccc(Cl)cc2)c(=O)[nH]c1=O	none
Cc1ccc(NC(=O)CN(C)Cc2nc3ccccc3c(=O)[nH]2)c(Br)c1	none
Cc1cc(Br)ccc1NC(=O)CNC(=O)CN(C)Cc1nc2ccccc2c(=O)[nH]1	KCNH2 3.1 block -99
N=C1/C(=C\c2ccc(Br)o2)C(=O)N=C2SC(CC(=O)N3CCCCC3)=NN12	Rango dissoc inh 6.5µM, Rango-impB inh inconclusive
COc1cc(N)c(Cl)cc1C(=O)N[C@@H]1CCN(CCCOc2ccc(F)cc2)C[C@@H]1OC	none (no result: Rango dissoc inh, Rango-impB inh, KCNH2 3.1 block, hERG WT inh, CCT modulator)
COc1cc(N)c(Cl)cc1C(=O)N[C@H]1CCN(CCCOc2ccc(F)cc2)C[C@H]1OC	KCNH2 3.1 block -84, hERG WT inh -70
O=C(N/N=C/c1cc(Br)cc([N+](=O)[O-])c1O)c1ccc(NC(=O)c2ccc(F)cc2)cc1	none
Cc1ccc(OCCNC(=O)c2ccc3ccccc3n2)cc1	Rango dissoc inh inconclusive
Cc1cccc(C)c1OCCNC(=O)c1ccc2ccccc2n1	KCNH2 3.1 block -89
Cc1ccccc1OCCNc1ccc(C(F)(F)F)cc1[N+](=O)[O-]	CCT modulator -53
Cc1ccc(Nc2c([N+](=O)[O-])c(=O)oc3ccccc23)cc1C	KCNH2 3.1 block -75
Cc1cc(/C=C\c2ccccc2)nc2ccccc12	KCNH2 3.1 block -189
COc1ccc(/C=C/c2cc(C(=O)O)c3ccccc3n2)cc1	MmCpn inh inconclusive
CCC(C(=O)N(C(C)C)C(C)C)c1ccccc1 (centres undefined)	KCNH2 3.1 block -146
CCC(C(=O)c1ccc(O)cc1)c1ccccc1 (centres undefined)	none
CN(C)S(=O)(=O)c1ccc(-c2cn3ccccc3n2)cc1	none
CCN(CC)S(=O)(=O)c1ccc(-c2cn3ccccc3n2)cc1	hERG WT inh -100 (no result: Rango dissoc inh, Rango-impB inh, MmCpn inh)
CCC(=O)Nc1nonc1-c1nc2ccccc2n1Cc1cccc2ccccc12	KCNH2 3.1 block -85
CCC(=O)Nc1nonc1-c1nc2ccccc2n1Cc1ccccc1	none
CCC(C)(C)NC(=O)CN(C(=O)c1ccc(N2CCCC2)nc1)c1ccc(F)cc1	none
Cc1cccc(N(CC(=O)NC(C)C)C(=O)c2ccc(N3CCCC3)nc2)c1	CCT modulator -35
Cc1ccc(NC(=O)COC(=O)[C@@H]2CC(O)CN2S(=O)(=O)c2ccc3c(c2)OCCO3)cc1 (some centres undefined)	none
O=C(CCC1CCCCC1)NCCN1C2=NC[C@@H](Cc3ccccc3)N2C[C@H]1Cc1ccc(O)cc1	KCNH2 3.1 block -99, hERG WT inh -116 (no result: MmCpn inh)
COc1ccc(C[C@@H]2CN3C(=NC[C@@H]3Cc3ccc(O)cc3)N2C[C@H](C)NC(=O)CCC2CCCCC2)cc1	hERG WT inh -89
CC(=O)CN1Cc2ccccc2/C1=N\C(=O)Nc1ccccc1	KCNH2 3.1 block -78
OC(CNCC1CCCO1)Cn1c2ccc(Cl)cc2c2cc(Cl)ccc21 (centres undefined)	KCNH2 3.1 block -99, hERG WT inh inconclusive
O=C(CSc1ncn[nH]1)Nc1cc(S(=O)(=O)N2CCCC2)ccc1Cl	none
N#CN(Cc1ccccc1)Cc1ccccc1	none
CC1/C(=N/O)C(CN(C)C)C2CC1C2(C)C (centres undefined)	hERG WT inh -291
COc1ccc(CCNC(=O)C2CCN(S(=O)(=O)c3cccc4cccnc34)CC2)cc1OC	CCT modulator -46
COc1ccc(Br)cc1/C=N/n1c(C)nc2ccccc2c1=O	none
Cc1nc2ccccc2c(=O)n1/N=C/c1cc(Br)ccc1O	Rango dissoc inh 10µM, Rango-impB inh inconclusive
COc1cc(OC)cc(C(=O)Nc2cccc(NC(=O)c3ccccc3)c2)c1	none
COc1cc(OC)cc(C(=O)Nc2ccc(-c3nc4ccccc4o3)cc2)c1	KCNH2 3.1 block -112
COc1cccc(C(=O)Nc2ccc(-c3nc4ccccc4o3)c(O)c2)c1	MmCpn inh inconclusive
COc1ccc(-c2nc3ccccc3o2)cc1NC(=O)CSc1ccc(Cl)cc1	CCT modulator -90
COc1cc(OC)cc(C(=O)NCC(=O)Nc2ccc(C)c(Cl)c2)c1	Rango dissoc inh inconclusive
COc1cc(OC)cc(C(=O)Nc2ccc(Nc3ccccc3)cc2)c1	KCNH2 3.1 block -86
COc1cc(OC)cc(C(=O)NCC(=O)Nc2ccc(-c3ccccc3)cc2)c1	KCNH2 3.1 block -82
CCOC(=O)C1CCN(C(=O)c2ccccc2)C(CC)C1=O (centres undefined)	none (no result: MmCpn inh)
O=C(c1cccc(S(=O)(=O)NCc2ccccc2)c1)N1CCCC(C(F)(F)F)C1 (centres undefined)	none
C=CCn1c2[n+](c3ccccc3c1=O)CCCCC2	KCNH2 3.1 block -113
C=CCn1c(SCC(=O)NC2CCCCC2)nc2ccccc2c1=O	hERG WT inh inconclusive
COc1ccc(-n2nc3ccc(N)cc3n2)cc1	none (no result: Rango dissoc inh, Rango-impB inh, MmCpn inh)
CCOc1ccc(-n2nc3ccc(N)cc3n2)cc1	Rango dissoc inh 5.2µM, Rango-impB inh inconclusive
Cc1ccc(C)c(C(=O)COC(=O)c2cc(S(=O)(=O)N3CCOCC3)ccc2F)c1	hERG WT inh -77 (no result: Rango dissoc inh, Rango-impB inh, MmCpn inh)
CN(C)c1ccnc(Nc2ccccc2)c1C#N	KCNH2 3.1 block -90
N#CCCn1cc(/C=N/NC(=O)c2ccncc2)c(-c2ccc(F)cc2)n1	none
O=C(CN1C2=NCCCN2c2ccccc21)c1cccc(Br)c1	KCNH2 3.1 block inconclusive
O=C(CN1C2=NCCCN2c2ccccc21)c1ccc([N+](=O)[O-])cc1	KCNH2 3.1 block -74
COc1ccc(N2CCN(CCNC(=O)Nc3ccc(C)c(Cl)c3)CC2)cc1	Rango dissoc inh inconclusive, KCNH2 3.1 block -90 (no result: hERG WT inh)
COc1ccc(NC(=O)NCCN2CCN(c3cccc(Cl)c3)CC2)cc1	none
COc1ccc(C(=O)CCN2CCN(c3ccc(OC)cc3)CC2)cc1	KCNH2 3.1 block -71
COc1ccc(NC(=O)NCCCN2CCN(c3cc(C)ccc3C)CC2)cc1	KCNH2 3.1 block -92
COc1cccc(NC(=O)NCCCN2CCN(c3ccc(F)cc3)CC2)c1	KCNH2 3.1 block -82
